Molecular target: purified human Factor XIa (Homo sapiens (Human), UniProt P03951)
Experiment: Factor XIa Assay
Assay type: biochemical
Details: purified human Factor XIa 40 pM, substrate Z-Gly-Pro-Arg-AFC, pH 7.4; read-out: FXIa IC50
Procedure: The effectiveness of a compound of the present invention as an inhibitor of Coagulation Factor XIa can be determined using a relevant purified serine protease, and an appropriate synthetic substrate. The rate of hydrolysis of the chromogenic or fluorogenic substrate by the relevant serine protease was measured both in the absence and presence of compounds of the present invention. Assays were conducted at room temperature or at 37° C. […] A decrease in the rate of fluorescence change in the presence of inhibitor is indicative of enzyme inhibition. Such methods are known to one skilled in the art. […]
Factor XIa determinations were made in 50 mM HEPES buffer at pH 7.4 containing 150 mM NaCl, 5 mM CaCl2, and 0.1% PEG 8000 (polyethylene glycol; JT Baker or Fisher Scientific). Determinations were made using purified human Factor XIa at a final concentration of 40 pM (Sekisui Diagnostics) and he synthetic substrate, Z-Gly-Pro-Arg-AFC, TFA salt (Sigma #C0980) at a concentration of 100 µM.
Activity assays were performed by diluting a stock solution of substrate at least tenfold to a final concentration ≦0.1 Km into a solution containing enzyme or enzyme equilibrated with inhibitor. Times required to achieve equilibration between enzyme and inhibitor were determined in control experiments. Initial velocities of product formation in the absence (Vo) or presence of inhibitor (Vi) were measured. […]

Sequences of proteins named here, by UniProt entry; tags and fusion partners are left off. Residues count along the entry.
UniProt P03951, 19-387 partner: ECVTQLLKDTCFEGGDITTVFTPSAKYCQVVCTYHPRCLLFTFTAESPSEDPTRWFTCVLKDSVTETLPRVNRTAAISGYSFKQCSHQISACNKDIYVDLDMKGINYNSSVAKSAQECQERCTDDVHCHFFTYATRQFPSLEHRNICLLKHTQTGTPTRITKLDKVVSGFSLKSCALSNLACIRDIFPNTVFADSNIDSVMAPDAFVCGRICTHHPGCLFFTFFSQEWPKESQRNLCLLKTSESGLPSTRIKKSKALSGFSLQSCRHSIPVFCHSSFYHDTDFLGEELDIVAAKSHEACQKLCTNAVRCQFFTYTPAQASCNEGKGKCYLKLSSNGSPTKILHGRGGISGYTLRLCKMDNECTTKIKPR
UniProt P03951, 388-625: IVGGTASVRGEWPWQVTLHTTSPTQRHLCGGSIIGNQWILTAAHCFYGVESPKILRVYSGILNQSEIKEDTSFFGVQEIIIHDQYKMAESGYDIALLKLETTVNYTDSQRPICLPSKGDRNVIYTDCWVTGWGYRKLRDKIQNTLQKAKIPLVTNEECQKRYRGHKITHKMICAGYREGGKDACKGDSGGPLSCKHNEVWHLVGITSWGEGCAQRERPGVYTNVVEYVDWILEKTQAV

IC50 | Structure (SMILES)
0.181 µM | O=C(O)c1ccc(NC(=O)C(CC2CC2)c2ccc(-c3cc(Cl)ccc3-n3cc(C(F)F)nn3)c[n+]2[O-])cc1 (single isomer, unassigned) [Example 51, 4-{[2-(5-{5-chloro-2-[4-(difluoromethyl)-1H-1,2,3-triazol-1-yl]phenyl}-1-oxidopyridin-2-yl)-3-cyclopropylpropanoyl]amino}benzoic acid]
0.00068 µM | O=C(O)c1ccc(NC(=O)C(CC2CC2)c2ccc(-c3cc(Cl)ccc3-n3cc(C(F)F)nn3)c[n+]2[O-])cc1 (single isomer, unassigned) [Example 52, 4-{[2-(5-{5-chloro-2-[4-(difluoromethyl)-1H-1,2,3-triazol-1-yl]phenyl}-1-oxidopyridin-2-yl)-3-cyclopropylpropanoyl]amino}benzoic acid]

From patent US9783530B2, “Factor Xla inhibitors” (Merck Sharp & Dohme Corp., priority 2014, dated 2017)
